Measurements taken from PMC12447755, “β-Lactamase cleavable antimicrobial peptide–drug conjugates” (Chemical Science, 2025).

Chains of the proteins cited; added tags and fusions are not shown. Residues count along the entry.
UniProt P62593, 24-286 limits assumed: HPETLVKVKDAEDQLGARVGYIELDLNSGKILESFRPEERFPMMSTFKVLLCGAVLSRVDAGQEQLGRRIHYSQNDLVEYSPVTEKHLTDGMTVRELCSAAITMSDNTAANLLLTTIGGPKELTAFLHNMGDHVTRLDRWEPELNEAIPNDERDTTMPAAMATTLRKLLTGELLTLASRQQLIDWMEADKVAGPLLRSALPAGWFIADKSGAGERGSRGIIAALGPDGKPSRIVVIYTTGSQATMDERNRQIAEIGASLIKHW

Target: recombinant β-lactamase (TEM-1 expressed in E. coli) (Escherichia coli, UniProt P62593)
Assay: Nitrocefin hydrolysis by recombinant β-lactamase (Abs482)
Details: 1 nM β-lactamase, 100 µM nitrocefin in MH-medium, Abs482, Fig. S6b

O=C(Cc1cccs1)N[C@@H]1C(=O)N2C(C(=O)O)=C(/C=C/c3ccc([N+](=O)[O-])cc3[N+](=O)[O-])CS[C@H]12 [nitrocefin]
time to full hydrolysis: about 20 min
